Tests used:
Type in all cases: ADME
Conditions in all cases: recombinant enzyme
[1] = biological target: T1, Cytochrome P450 3A5 (Homo sapiens, UniProt P20815); experiment: Drug metabolism assessed as recombinant CYP3A5 (unknown origin)-mediated 16alpha-hydroxy prednisolone metabolite formation by MS/MS analysis
[2] = biological target: T1, Cytochrome P450 3A5; experiment: Drug metabolism assessed as recombinant CYP3A5 (unknown origin)-mediated delta6-budesonide metabolite formation by MS/MS analysis
[3] = biological target: T2, Cytochrome P450 3A7 (Homo sapiens, UniProt P24462); experiment: Drug metabolism assessed as recombinant CYP3A7 (unknown origin)-mediated 16alpha-hydroxy prednisolone metabolite formation by MS/MS analysis
[4] = biological target: T2, Cytochrome P450 3A7; experiment: Drug metabolism assessed as recombinant CYP3A7 (unknown origin)-mediated delta6-budesonide metabolite formation by MS/MS analysis
[5] = biological target: T1, Cytochrome P450 3A5; experiment: Drug metabolism assessed as recombinant CYP3A5 (unknown origin)-mediated 16alpha-hydroxy prednisolone metabolite formation by MS/MS analysis in presence of esterase inhibitor
[6] = biological target: T2, Cytochrome P450 3A7; experiment: Drug metabolism assessed as recombinant CYP3A7 (unknown origin)-mediated 16alpha-hydroxy prednisolone metabolite formation by MS/MS analysis in presence of esterase inhibitor
[7] = biological target: T1, Cytochrome P450 3A5; experiment: Drug metabolism assessed as recombinant CYP3A5 (unknown origin)-mediated 6beta-hydroxy budesonide metabolite formation by MS/MS analysis
[8] = biological target: T2, Cytochrome P450 3A7; experiment: Drug metabolism assessed as recombinant CYP3A7 (unknown origin)-mediated 6beta-hydroxy budesonide metabolite formation by MS/MS analysis
[9] = biological target: T1, Cytochrome P450 3A5; experiment: Drug metabolism assessed as recombinant CYP3A5 (unknown origin)-mediated 23-hydroxy budesonide metabolite formation by MS/MS analysis
[10] = biological target: T2, Cytochrome P450 3A7; experiment: Drug metabolism assessed as recombinant CYP3A7 (unknown origin)-mediated 23-hydroxy budesonide metabolite formation by MS/MS analysis

The chains behind the UniProt entries cited, without tags or fusion partners.
UniProt P20815, whole entry: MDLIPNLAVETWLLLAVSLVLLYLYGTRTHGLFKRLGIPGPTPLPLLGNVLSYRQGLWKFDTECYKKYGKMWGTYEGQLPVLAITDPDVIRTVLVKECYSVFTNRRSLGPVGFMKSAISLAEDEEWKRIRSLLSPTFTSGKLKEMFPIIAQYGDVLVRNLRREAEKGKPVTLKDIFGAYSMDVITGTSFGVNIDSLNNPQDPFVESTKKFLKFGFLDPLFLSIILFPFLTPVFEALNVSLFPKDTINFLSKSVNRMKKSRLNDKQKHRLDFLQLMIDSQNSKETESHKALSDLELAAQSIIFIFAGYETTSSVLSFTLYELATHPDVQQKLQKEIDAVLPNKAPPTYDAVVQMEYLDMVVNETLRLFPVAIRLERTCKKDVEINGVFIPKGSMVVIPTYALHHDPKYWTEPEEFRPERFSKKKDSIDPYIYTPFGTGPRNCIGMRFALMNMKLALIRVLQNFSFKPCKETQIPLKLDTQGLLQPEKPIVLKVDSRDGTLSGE
UniProt P24462, whole entry: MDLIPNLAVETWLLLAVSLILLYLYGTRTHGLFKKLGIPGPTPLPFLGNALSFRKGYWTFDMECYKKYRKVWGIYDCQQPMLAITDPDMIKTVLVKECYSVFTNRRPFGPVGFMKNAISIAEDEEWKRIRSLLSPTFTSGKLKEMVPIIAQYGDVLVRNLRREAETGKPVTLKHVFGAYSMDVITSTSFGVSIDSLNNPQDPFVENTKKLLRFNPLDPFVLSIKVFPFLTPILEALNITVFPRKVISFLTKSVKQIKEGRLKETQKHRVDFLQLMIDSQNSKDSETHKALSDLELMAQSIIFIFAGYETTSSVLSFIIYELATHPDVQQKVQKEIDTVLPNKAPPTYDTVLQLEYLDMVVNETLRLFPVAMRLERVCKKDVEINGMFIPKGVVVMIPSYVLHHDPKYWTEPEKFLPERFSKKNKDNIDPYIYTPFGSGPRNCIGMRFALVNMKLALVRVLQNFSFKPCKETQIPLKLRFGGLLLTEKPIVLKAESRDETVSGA

`CCCC1O[C@@H]2C[C@H]3[C@@H]4CCC5=CC(=O)C=C[C@]5(C)[C@H]4[C@@H](O)C[C@]3(C)[C@]2(C(=O)CO)O1` (stereo not given in full) [BUDESONIDE] was tested, and the Drug metabolism [1] was “metabolite_detected”, the Drug metabolism [2] was “metabolite_detected” and the Drug metabolism [3] was “metabolite_detected”. For the same compound, the Drug metabolism [4] was “metabolite_detected”, the Drug metabolism [5] was “metabolite_not_detected” and the Drug metabolism [6] was “metabolite_not_detected”. The Drug metabolism [7] was “metabolite_detected”, the Drug metabolism [8] was “metabolite_detected” and the Drug metabolism [9] was “metabolite_detected”. The Drug metabolism [10] was “metabolite_detected”.
